Source: ChEMBL document CHEMBL1127483, “Synthesis and structure activity relationships of cis- and trans-2,3,4,4a,9,9a-hexahydro-1H-indeno[2,1-c]pyridines for 5-HT receptor subtypes” (J Med Chem, 1994)

Chains of the proteins cited; added tags and fusions are not shown.
UniProt P28564, whole entry: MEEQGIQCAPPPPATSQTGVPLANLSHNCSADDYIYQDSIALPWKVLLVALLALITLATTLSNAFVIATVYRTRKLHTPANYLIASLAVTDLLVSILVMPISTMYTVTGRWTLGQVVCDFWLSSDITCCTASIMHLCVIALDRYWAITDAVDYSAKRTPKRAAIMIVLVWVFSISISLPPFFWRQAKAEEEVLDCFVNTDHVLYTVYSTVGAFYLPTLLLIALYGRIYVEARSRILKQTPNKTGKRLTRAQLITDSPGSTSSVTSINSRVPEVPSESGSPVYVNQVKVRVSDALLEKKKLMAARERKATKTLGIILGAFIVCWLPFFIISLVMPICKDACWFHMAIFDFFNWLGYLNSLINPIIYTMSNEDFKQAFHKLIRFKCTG

Target: 5-hydroxytryptamine receptor 1B (Rattus norvegicus, UniProt P28564)
Experiment: Inhibition of [3H]5-HT binding to 5-hydroxytryptamine 1B receptor
Method in brief: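 [3H]5-HT binding to 5-HT1 sites. The 5-HT1A component was distinguished by masking 5-HT1A sites with 1 µM S-spiroxatrine. Values are geometric means.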

CCCN(CCC)C1CCc2cccc(O)c2C1 (stereo unspecified) [8-OH-DPAT]
Ki: 2.57 µM
